Test results published in US10695333B2 (NOVARTIS AG, priority 2017, dated 2020).

Amino acid sequences for entries named in this document (tags omitted).
UniProt P03372, whole entry Y537S: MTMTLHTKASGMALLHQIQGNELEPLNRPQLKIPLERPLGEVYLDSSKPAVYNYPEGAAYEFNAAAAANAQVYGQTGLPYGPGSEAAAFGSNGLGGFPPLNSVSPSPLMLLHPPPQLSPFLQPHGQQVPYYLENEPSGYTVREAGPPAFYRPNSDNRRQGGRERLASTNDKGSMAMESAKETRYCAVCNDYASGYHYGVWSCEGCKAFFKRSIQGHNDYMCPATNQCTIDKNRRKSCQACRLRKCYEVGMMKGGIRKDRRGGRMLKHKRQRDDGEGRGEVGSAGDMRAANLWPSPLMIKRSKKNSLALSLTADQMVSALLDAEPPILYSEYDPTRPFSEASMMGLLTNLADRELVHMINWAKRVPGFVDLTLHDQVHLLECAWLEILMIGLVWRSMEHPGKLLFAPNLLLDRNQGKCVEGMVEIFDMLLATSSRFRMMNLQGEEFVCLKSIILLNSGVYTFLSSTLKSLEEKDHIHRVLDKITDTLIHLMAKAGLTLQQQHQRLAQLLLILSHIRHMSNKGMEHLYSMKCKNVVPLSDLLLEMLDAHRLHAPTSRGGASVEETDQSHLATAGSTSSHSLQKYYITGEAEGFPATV

How the values were obtained:
[1] = test system: Y537S ER mutant MCF-7 xenograft; experiment: Y537S ER mutant MCF-7 breast cancer model in NSG mice; format: in vivo, mouse; conditions: for Tumor response Regression / Tumor response ΔT/ΔC: Day 70; for Tumor response in words: LSZ102 20 and 80 mg/kg daily, fulvestrant 5 mg/mouse weekly
[2] = molecular target: ERα Y537S mutant (Homo sapiens, UniProt P03372, Y537S); conditions: MCF-7 Y537S mutant cells, 24 hr treatment
[3] = test system: ER target genes GREB1 and PGR; conditions: MCF-7 Y537S mutant cells, qRT-PCR

Compound: C[C@]12CC[C@@H]3c4ccc(O)cc4C[C@@H](CCCCCCCCC[S+]([O-])CCCC(F)(F)C(F)(F)F)[C@H]3[C@@H]1CC[C@@H]2O (some centres unmarked) [Fulvestrant, reference compound]
- Tumor response Regression ([1]; 5 mg/mouse SC QWeek): none
- Tumor response ΔT/ΔC ([1]; 5 mg/mouse SC QWeek): 39.4%
- Tumor response in words [1]: did not reach statistically significant efficacy
- ER protein levels (immunoblot) [2]: did not appear to have any effect

Compound: CC(F)(F)c1cc(F)ccc1-c1sc2cc(O)ccc2c1Oc1ccc(/C=C/C(=O)O)cc1 [LSZ102, (E)-3-(4-((2-(2-(1,1-difluoroethyl)-4-fluorophenyl)-6-hydroxybenzo[b]thiophen-3-yl)oxy)phenyl)acrylic acid]
- Tumor response Regression ([1]; 20 mg/kg QD PO): 17.7%
- Tumor response ΔT/ΔC ([1]; 20 mg/kg QD PO): −5.5%
- Tumor response Regression ([1]; 80 mg/kg QD PO): 46.9%
- Tumor response ΔT/ΔC ([1]; 80 mg/kg QD PO): −13.9%
- Tumor response in words [1]: regressed the Y537S ER expressing MCF-7 xenografts
- ESR1 mRNA levels [3]: not significantly reduced
- mRNA expression of GREB1 and PGR [3]: dose response inhibition
